# Target: T1, sodium ion channel 1.7 (Homo sapiens, UniProt Q15858)
# Sequences of proteins named here, by UniProt entry; tags and fusion partners are left off.
# UniProt Q15858, whole entry: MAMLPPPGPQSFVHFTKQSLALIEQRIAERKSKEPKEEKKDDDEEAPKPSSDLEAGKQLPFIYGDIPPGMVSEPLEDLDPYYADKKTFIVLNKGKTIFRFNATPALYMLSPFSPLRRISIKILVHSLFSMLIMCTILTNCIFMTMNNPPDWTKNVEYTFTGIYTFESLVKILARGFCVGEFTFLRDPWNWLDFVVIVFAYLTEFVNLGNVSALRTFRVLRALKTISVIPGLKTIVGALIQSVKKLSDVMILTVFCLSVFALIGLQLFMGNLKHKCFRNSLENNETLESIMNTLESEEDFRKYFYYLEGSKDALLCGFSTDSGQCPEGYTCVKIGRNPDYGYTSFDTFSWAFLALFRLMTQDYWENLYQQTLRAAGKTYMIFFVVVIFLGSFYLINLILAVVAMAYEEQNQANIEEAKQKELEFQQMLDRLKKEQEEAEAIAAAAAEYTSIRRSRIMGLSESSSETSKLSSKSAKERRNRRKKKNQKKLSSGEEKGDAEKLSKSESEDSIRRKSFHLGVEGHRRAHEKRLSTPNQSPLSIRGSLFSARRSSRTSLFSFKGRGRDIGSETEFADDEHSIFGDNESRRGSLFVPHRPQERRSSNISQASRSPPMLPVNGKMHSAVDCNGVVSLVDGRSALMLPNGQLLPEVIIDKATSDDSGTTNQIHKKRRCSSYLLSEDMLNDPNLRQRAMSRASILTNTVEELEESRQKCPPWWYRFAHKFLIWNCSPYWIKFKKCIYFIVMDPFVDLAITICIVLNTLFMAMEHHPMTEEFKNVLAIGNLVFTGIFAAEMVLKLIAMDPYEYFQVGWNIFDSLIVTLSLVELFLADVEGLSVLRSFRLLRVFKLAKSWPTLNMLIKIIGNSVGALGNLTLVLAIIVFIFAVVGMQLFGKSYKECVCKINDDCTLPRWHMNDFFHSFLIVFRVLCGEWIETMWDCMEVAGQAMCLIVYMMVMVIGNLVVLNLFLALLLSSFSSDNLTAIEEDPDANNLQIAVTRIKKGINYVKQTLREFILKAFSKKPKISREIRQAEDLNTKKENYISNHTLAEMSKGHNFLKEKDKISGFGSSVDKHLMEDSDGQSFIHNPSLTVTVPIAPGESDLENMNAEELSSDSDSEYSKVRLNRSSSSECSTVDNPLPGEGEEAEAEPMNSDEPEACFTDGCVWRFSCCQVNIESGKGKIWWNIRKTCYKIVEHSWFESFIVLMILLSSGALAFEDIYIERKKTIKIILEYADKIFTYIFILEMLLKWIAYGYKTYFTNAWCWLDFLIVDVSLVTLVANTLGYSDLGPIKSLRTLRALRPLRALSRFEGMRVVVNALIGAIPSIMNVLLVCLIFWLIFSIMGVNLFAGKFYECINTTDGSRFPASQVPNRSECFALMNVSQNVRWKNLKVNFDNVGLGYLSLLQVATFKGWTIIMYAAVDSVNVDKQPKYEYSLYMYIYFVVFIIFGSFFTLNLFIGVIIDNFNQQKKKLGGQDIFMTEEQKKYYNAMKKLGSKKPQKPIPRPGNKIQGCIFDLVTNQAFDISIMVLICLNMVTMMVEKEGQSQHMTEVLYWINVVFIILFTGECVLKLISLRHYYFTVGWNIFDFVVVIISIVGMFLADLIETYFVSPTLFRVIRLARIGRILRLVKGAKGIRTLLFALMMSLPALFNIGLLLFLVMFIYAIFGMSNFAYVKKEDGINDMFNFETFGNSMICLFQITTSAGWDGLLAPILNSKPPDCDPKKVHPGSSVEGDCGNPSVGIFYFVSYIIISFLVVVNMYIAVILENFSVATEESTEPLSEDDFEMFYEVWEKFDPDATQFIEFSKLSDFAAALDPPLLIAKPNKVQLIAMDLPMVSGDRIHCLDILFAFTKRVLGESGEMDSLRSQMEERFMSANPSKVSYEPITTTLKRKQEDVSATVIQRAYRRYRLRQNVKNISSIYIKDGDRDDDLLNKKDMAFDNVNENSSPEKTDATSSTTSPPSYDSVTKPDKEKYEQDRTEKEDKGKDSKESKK
# T1 construct: endogenous in cells; host or cells: sensory neurons induced from human fibroblast-derived iPSCs
# Assay: MEA spontaneous discharge after PF-05089771
# Type: cell-based
substance,measurement,value
CHIR98014,electrophysiological strength of sodium ion channels of induced cells,significantly improved

# Reference: patent US20230235282A1, “SERUM-FREE INDUCTION METHOD FOR SENSORY NEURON CELL” (IREGENE THERAPEUTICS LTD, priority 2020, published 2023)
